Laboratory results reported in ChEMBL document CHEMBL3627700, “Discovery of novel N-aryl piperazine CXCR4 antagonists” (Bioorg Med Chem Lett, 2015).

Experiments:
[1] = system: Human immunodeficiency virus 1; assay: Antiviral activity against HIV1 3B assessed as inhibition of viral attachment to human MAGI cells; type: functional, organism-based; conditions: Human immunodeficiency virus 1, 3B
[2] = Selectivity ratio of IC50 for CXCR4 in human Chem-1 cells to IC50 for HIV1 3B assessed as inhibition of viral attachment to human MAGI cells; type: cell-based

Row | pIC50 [1] | SMILES | Ratio IC50 [2]
1 | 6.82 | NCCCCN(C[C@H]1CN(Cc2ccccc2)CCN1)[C@H]1CCCc2cccnc21 | 
2 | 7.52 | NCCCCN(C[C@@H]1CN(Cc2ccccc2)CCN1)[C@H]1CCCc2cccnc21 | 6

pIC50: −log10 of the molar value.
